The subject of this assay is B16 F0 murine melanoma cells. Put plainly: Colony forming technique: chemotherapeutic and radiotherapeutic (^125I) effects in vitro. The assay is classed as cell-based. Conditions: inhibition of growth, cold products. The protocol: The colony forming technique is involved, that is to say the growth of colonies of clones starting from tumour cells (B16 F0 murine melanoma cells) inoculated at a low concentration. This method makes it possible to visualize the cytotoxic and cytostatic properties of the compounds studied. The study was carried out in three parts:
The experiment is carried out on 6-well plates where 200 cells are inoculated in 2 ml of DMEM medium. After 20 hours, the medium is withdrawn and replaced with 2 ml of medium comprising the labelled compound at the desired concentration. This study is carried out in comparison with control wells comprising DMEM medium alone. […] The plates are incubated for 8 days and then the medium is withdrawn. The wells are rinsed with PBS and methanol is added for 3 minutes. Once attached, the cells are coloured with crystal violet with a contact time of 3 minutes. Subsequently, the colonies comprising more than 50 cells are counted using a dedicated counter. The growth of the treated colonies of cells is quantified in comparison with the controls. The activity of the product is expressed by a percentage of inhibition:
100−[(number of treated colonies)/(number of control colonies)]×100

The structures appear in SMILES notation. Counter-ions that a name gives are not always drawn.

Turning to `CCN(CC)CCNC(=O)c1cccc2cc3cccc(I)c3nc12` [compound 102, N-(2-diethylaminoethyl)-5-iodoacridine-4-carboxamide dihydrochloride], the “activity of the cold compound in comparison with the derivatives 84 and 151” value lay in the range of 15 to 40 ×.

The values above are taken from US20100061928A1, “LABELLED ANALOGUES OF HALOBENZAMIDES AS RADIOPHARMACEUTICALS” (Institut National De La Sante et De La Recherche Medicale …, priority 2006, published 2010).
